Data as given in patent publication US11820970B2, “High throughput protein-protein interaction screening in yeast liquid culture” (University of Washington, priority 2016, dated 2023).

Protein sequences, listed by entry. Tags and fused reporters are not part of them.
UniProt P10415, whole entry, species assumed: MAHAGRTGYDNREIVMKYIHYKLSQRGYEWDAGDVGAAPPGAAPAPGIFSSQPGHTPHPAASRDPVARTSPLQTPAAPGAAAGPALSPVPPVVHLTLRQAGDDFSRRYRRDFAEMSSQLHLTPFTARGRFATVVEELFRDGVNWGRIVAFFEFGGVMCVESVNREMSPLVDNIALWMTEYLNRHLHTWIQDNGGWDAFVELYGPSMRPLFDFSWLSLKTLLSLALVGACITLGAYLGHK
UniProt Q07817, whole entry, species assumed: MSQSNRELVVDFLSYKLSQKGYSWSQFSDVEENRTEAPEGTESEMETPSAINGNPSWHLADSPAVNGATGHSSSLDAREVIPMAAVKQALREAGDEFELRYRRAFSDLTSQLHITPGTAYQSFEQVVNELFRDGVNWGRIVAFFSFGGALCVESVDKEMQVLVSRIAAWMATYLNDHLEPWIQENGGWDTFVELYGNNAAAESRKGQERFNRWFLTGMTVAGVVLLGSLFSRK

Legend:
[1] = molecular target: Bcl2 (Homo sapiens, UniProt P10415); assay: Pairwise (two-strain) yeast mating assay, flow cytometry of diploid percent; format: cell-based; details: SAP pair with Bcl2 displayed on MATa, Sag1 knockout, turbulent liquid culture
[2] = molecular target: BclXL (Homo sapiens, UniProt Q07817); assay: Batched (one-pot) yeast mating assay, barcode sequencing; format: cell-based; details: vs BclXL
Procedure: For a many-to-many (also see Example 6) batched mating assay, multiple haploid yeast strains of each mating type are combined in a fresh 3 mL YPD culture. The recombinant MATa yeast strains are added in equal concentrations for a total density of 100 cells/μL and the recombinant MATalpha yeast strains are added in equal concentrations for a total density of 600 cells/μL. After 6 hours of growth, hygromycin is added at 100 ng/μL and β-estradiol (PE) is added at 200 ng/μL. 20 hours after the initial culture inoculation, 1 mL of cells are pelleted. 2 μL of cells are removed from the pellet, lysed with 0.2% SDS, spun down to remove all cellular debris, and diluted in water. […] The frequency that a particular pair of barcodes is observed relative to the total number of reads provides a relative measure for the number of matings that were caused by the SAP pair associated with those two particular barcodes.
LIBRARY MATING ASSAYS: For library mating assays in which each isogenic strain was constructed individually and the barcode associated with each synthetic adhesion protein was determined with Sanger sequencing, one or both of the isogenic haploid strains from a one-to-one mating were replaced with a library of strains, all of the same mating type, displaying unique barcoded synthetic adhesion proteins. […]

mating efficiency / recovery of mating (in words) [1]	binding in batched mating (interaction profile, in words) [2]	Substance
recovers mating efficiency	nonspecifically	Bim: natural BH3 domain peptide binder of Bcl2 family proteins
–	nonspecifically	Puma: natural BH3 domain peptide binder of Bcl2 family proteins (EEQWAREIGAQLRRMADDLNAQYERR)
